Values of other authors in US5468875A, “1-azabicycloheptane derivatives” (American Home Products Corporation, priority 1994, dated 1995).

Test system: m1 receptors
Details: cited from earlier work

C[N+](C)(C)CCOC(N)=O [carbachol]
activation of m1 receptors: able to fully activate m1 receptors
